# AlphaSeq binding of Ab-14 heavy chain variants to a spike HR2 peptide

The measurements come from Li et al. 2023 (doi:10.1038/s41467-023-39022-2) through the FLAb antibody collection.

The target is the same throughout: PDVDLGDISGINAS, from the HR2 region of SARS-CoV-2 spike.

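Phage display of a naive human antibody library on the peptide gave the parent. The variants were designed computationally from a first round of random CDR variants and then made and measured. Several design methods are mixed in this list. The scFvs were displayed on barcoded MATa yeast, the peptide on MATalpha yeast. Pairs that bind mate more often; barcode pairs of the diploids are counted by sequencing. A regression on co-assayed BCL2-family reference pairs converts the normalised counts of each replicate to an apparent Kd. Mating was done six times.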

Ab-14 is the parent antibody, in scFv form: VH, then a 15-residue (Gly4Ser)3 linker, then VL. The light chain is unchanged in all variants.
VH: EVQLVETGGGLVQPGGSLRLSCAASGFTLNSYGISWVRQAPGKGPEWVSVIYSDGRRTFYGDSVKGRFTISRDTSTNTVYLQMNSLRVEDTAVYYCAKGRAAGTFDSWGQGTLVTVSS
VL: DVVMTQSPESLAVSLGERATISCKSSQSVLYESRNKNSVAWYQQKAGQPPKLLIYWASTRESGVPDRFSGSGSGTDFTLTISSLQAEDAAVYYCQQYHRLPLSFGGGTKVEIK

Each variant is given by its three heavy chain CDRs, as the data file delimits them; those of the parent are GFTLNSYGIS, VIYSDGRRTFYGDSVK, GRAAGTFDS.
This list holds designs with at most six substitutions.
Kd is apparent (estimated from mating counts) and averaged on the log scale over replicates with a signal. Smaller is tighter.
Where no diploid with the target was found in any replicate, the entry reads "not detected": below detection, most likely a poor binder, though not proof of it.
Some sequences occur more than once in the pool; their replicates are pooled.

CDR-H1,CDR-H2,CDR-H3,apparent Kd,detected,empty controls
GFTLNEYGIS,VIYSDGWRTFYGDSVK,GRAAVTFDQ,not detected,0 of 6,0 of 18
GFTLRSYGIS,VIYSDGRRTFYGDSVK,GRQASTIDS,not detected,0 of 6,0 of 18
GFTLNSYGIS,VIYSDGRRTFYGDSVK,GELAGTFDM,87 nM,6 of 6,0 of 18
GFSLNSYGIS,VIYSDGRRTFYADSVK,GMLAGTFDS,540 pM,6 of 6,1 of 18
GFTLNSYGIS,VIYSDGRRTSYGDSVK,GFAAGTFDL,160 nM,5 of 6,0 of 18
GFTLNDYGIF,VIYSDGRRTQYIDSVK,GRAAGTFDS,not detected,0 of 6,0 of 18
GFTLNEYGIS,VIYSDGQRTFYGDSVK,GRAAVTFDQ,not detected,0 of 6,0 of 18
GFSLNSYGIS,VIYSDGRRTFYGDSVK,RKAMGQFDS,not detected,0 of 6,0 of 18
GFTLNSYGIS,MIYSDGRRTFYADSVK,GRAAGTFDK,not detected,0 of 6,0 of 18
GFELNSYGIS,VIYSDGRRTFYIDSVK,GRHAGTFDS,7.3 nM,1 of 6,0 of 18
LFTLNEYGIS,VIYSDGRRTFYRDSVK,GRTAGTFDS,770 pM,5 of 6,0 of 18
GFTLNSYGIS,VIYSDGRRTFYADDVK,GQLAGTFDS,9.0 nM,6 of 6,1 of 18
GFELNEYGIS,VIYSDGRRTFYSDSVK,GQAAGTFDS,810 pM,6 of 6,0 of 18
HFDLNSYGIS,VIYSDGRRTAYGDSVK,GRAAGTFDS,5.3 nM,6 of 6,0 of 18
GFTLNEYGIS,VIYSDGRRTFYGDSVK,GRVAGTFDG,6.6 nM,6 of 6,1 of 18
GPTLNSYGIS,VIYSDGRRTFYSDSVK,GSAGGTFDS,not detected,0 of 6,0 of 18
GFSLNSYGIS,VIYSDGRRTFYGDSVK,GRNAGTFDS,1.7 nM,12 of 12,0 of 36
GETLNSYGIS,VIYSDGRRTFYSDSVK,GRAAGTFDS,5.1 nM,6 of 6,1 of 18
GFTLNEYGIS,VIYSDGRRTFYGDSVK,GRQAGTFDV,1.4 nM,6 of 6,0 of 18
GFTLNSYGIS,VIYADGRRTFYGDSVK,GRAADTNES,not detected,0 of 6,1 of 18
RFTLNSYGIS,VIYSDGRRTAYSDSVK,LRAAGQFDS,not detected,0 of 6,0 of 18
GFNLNSYGIS,VIYSDGRRTFYADSVK,GRTAGTFDN,2.4 nM,6 of 6,0 of 18
GFELNEYGIS,VIYSDGRRTFYGDSVK,GRNAGTFDS,1.5 nM,6 of 6,0 of 18
GFTLNEYGIS,VIYSDGERTFYGDSVK,GRAAGHFDS,670 nM,1 of 6,1 of 18
GFTLNSYGIS,VIYFDGRRTFYADSVK,GRAAGTFDS,23 nM,3 of 6,0 of 18
GFTLNSYGIS,VIYSDGRRTFYGDSVK,GRLAGTFDS,140 nM,2 of 6,0 of 18
HFDLNSYGIS,VIYSDGRRTFYHDSVK,GQTAGTFDS,not detected,0 of 6,0 of 18
GFSLNSYGIS,VIYSDGRRTQYIDSVK,GRAAGTFDS,11 nM,6 of 6,0 of 18
GFTLKSYGIS,VIYSDGRRTFYSDSVK,GRAGGTFDS,not detected,0 of 6,0 of 18
GFQLNSYGIS,VIYSDGRRTFYADSVK,GREAGTFDS,8.4 nM,5 of 6,0 of 18
GFTLNDYGIS,VIYSDGKRTQYIDSVK,GRAAGTFDS,12 nM,6 of 6,1 of 18
CFTLNSYGIS,VIYSDGRRTFYIDSVK,GRAAGTFDS,52 nM,1 of 6,0 of 18
GFTLESYGIS,VIYSDGRRTFYGDSVK,GRTAGTFDK,28 nM,5 of 6,0 of 18
GFNLNSYGIS,VIYSDGKRTFYGDSVK,GRQAGTFDS,8.1 nM,6 of 6,0 of 18
KFTLNSYGIS,VIYSDGKRTFYADSVK,GRQAGTFDS,23 nM,5 of 6,0 of 18
YFSLNEYGIS,VIYSDGRRTFYGDSVK,GRMAGTFDS,28 nM,3 of 6,0 of 18
GFDLNSYGIS,VIYSDGRRTFYSDQVK,GQAAGTFDS,1.0 nM,6 of 6,0 of 18
GFTLNSYGIS,VIYSDGRRTFYMDSVK,ERAAWTFDS,not detected,0 of 6,0 of 18
GFTLNDYGIS,VIYSDGRRTFYSDSPK,GRAAGFFYS,not detected,0 of 6,0 of 18
GFTLTQYGIS,VIYSDGRRTFYGDSVK,GRAAGTFDS,20 nM,6 of 6,0 of 18
GFDLNSYGIS,VIYSDGRRTFYSDSVK,GRVAGTFDS,140 pM,6 of 6,0 of 18
RFTLNSYGIS,VIYSDGRRTFYGDSVK,GSAAATFRS,not detected,0 of 6,0 of 18
GFSLNSYGIS,VIYSDGRRTAYGDSVK,GRAAGTFDD,4.4 nM,6 of 6,0 of 18
GFTLDSYGIS,VIYSDGRRTFYGDSVK,GRVAGTFDT,not detected,0 of 6,0 of 18
GFTLNEYGIS,VIYSDGRRQFYTDSVK,GRAAGTFDS,54 nM,6 of 6,2 of 18
GFTLNEYGIS,VIYSDGRRTFYGDSVK,GRAAETFIK,not detected,0 of 6,0 of 18
GFTLNDYGIS,VIYSDGRRTFYQDSVK,GRAAGTFIS,not detected,0 of 6,0 of 18
GFTLNSYGIS,VIYHDGRRTFYDDSVK,GQNAGTFDS,54 nM,3 of 6,0 of 18
GFTLNSYGIS,VIYSDGRRTFYSDSVK,GRAAVTFDQ,not detected,0 of 6,0 of 18
GFTLNEYGIS,VIYSDGRRTFYIDSVK,GRFAGTFDS,1.9 nM,4 of 6,0 of 18
GFTLNSYGIS,VIYADGFRTFYGDSVK,GREAGQFDS,not detected,0 of 6,0 of 18
GFTLNSYGIS,VIYSDGRRTFYIDSVK,GYAIGTFDS,not detected,0 of 6,0 of 18
GETLNEYGIS,VIYSDGERTFYGDSVK,GRAAATFDS,not detected,0 of 6,0 of 18
GFELNEYGIS,VIYSDGRRTFYADDVK,GRTAGTFDS,950 pM,6 of 6,0 of 18
GFTLNMYGSS,VIYSDGRRTFYGDSVK,GRAAGTFDS,not detected,0 of 6,0 of 18
GFTLNSYGGS,VIYSDGRRTFYSDSVK,GREAGTFDS,32 nM,2 of 6,0 of 18
GFSLNEYGIS,VIYSDGRRTFYKDSVK,GRQAGTFDS,1.4 nM,6 of 6,2 of 18
GFTINSYGIS,VIYSDGRRTFYSDSVK,GRAAGLKDS,28 nM,1 of 6,0 of 18
GFSLNEYGIS,VIYSDGRRTFYGDSVK,GRTAGTIDS,not detected,0 of 6,0 of 18
GFTLESYGIS,VIYSDGQRTFYIDSVK,GRAAGTFDS,17 nM,3 of 6,0 of 18
GFQLNSYGIS,VIYSDGRRTFYSDSVK,GWAAGTFDS,not detected,0 of 6,0 of 18
GFTLNSYGIS,VIYSDGRRTFYGDQVK,GWEAGTFDS,not detected,0 of 6,0 of 18
GFDLNSYGIS,VIYSDGMRTFYGDSVK,GRTAGTFDS,1.7 nM,6 of 6,0 of 18
GFELNSYGIS,VIYSDGRRTFYTDSVK,GEAAGTFDS,970 pM,5 of 6,0 of 18
GFHLNDYGIS,VIYSDGRRTFYTDSVK,GRAAGTFDS,2.3 nM,6 of 6,0 of 18
GFTINSYGIS,VIYSDGRRTFYGDSVK,GRADGTFDS,not detected,0 of 6,0 of 18
GFSLNSYGIS,VIYSDGRRTAYDDSVK,GRAAGTFDS,1.1 nM,6 of 6,2 of 18
GFTLNSYGIS,VIYSDGRKTFYGDSVK,GQAAGTFDW,not detected,0 of 6,0 of 18
GFELNSYGIS,VIYSDGRRTFYGDSVK,GKAAGTFDV,5.5 nM,5 of 6,0 of 18
GFSLNEYGIS,VIYSDGRRTFYSDSVK,GKTAGTFDS,270 pM,6 of 6,0 of 18
GFTLNSYGIS,VIYSDGRRTFYGDSVK,GREAATFDS,not detected,0 of 6,0 of 18
GFFLNDYGIS,VIYSDGRRTFYADSVK,GTAAGTFDS,1.9 nM,6 of 6,1 of 18
GLTLNSYGIS,VIYSDGRRNFYDDSVK,GNAAGTFDS,57 nM,1 of 6,0 of 18
GFTLNEYGIS,VIYSDGRRTFYSDSVK,GRQAGTFDT,3.3 nM,1 of 6,1 of 18
GFVLNSYGIS,VIYSDGMRTFYVDSVK,GRTAGTFDS,77 nM,1 of 6,0 of 18
GFDLNEYGIS,VIYSDGRRTFYGDSVK,GRQAGTFDS,1.5 nM,6 of 6,1 of 18
GFWLNSYGIS,VIYSDGKRTFYGDSVV,GRAAGTFDS,not detected,0 of 6,0 of 18

The first 9 entries again:

CDR-H1,CDR-H2,CDR-H3,apparent Kd,detected,empty controls
GFTLNEYGIS,VIYSDGWRTFYGDSVK,GRAAVTFDQ,not detected,0 of 6,0 of 18
GFTLRSYGIS,VIYSDGRRTFYGDSVK,GRQASTIDS,not detected,0 of 6,0 of 18
GFTLNSYGIS,VIYSDGRRTFYGDSVK,GELAGTFDM,87 nM,6 of 6,0 of 18
GFSLNSYGIS,VIYSDGRRTFYADSVK,GMLAGTFDS,540 pM,6 of 6,1 of 18
GFTLNSYGIS,VIYSDGRRTSYGDSVK,GFAAGTFDL,160 nM,5 of 6,0 of 18
GFTLNDYGIF,VIYSDGRRTQYIDSVK,GRAAGTFDS,not detected,0 of 6,0 of 18
GFTLNEYGIS,VIYSDGQRTFYGDSVK,GRAAVTFDQ,not detected,0 of 6,0 of 18
GFSLNSYGIS,VIYSDGRRTFYGDSVK,RKAMGQFDS,not detected,0 of 6,0 of 18
GFTLNSYGIS,MIYSDGRRTFYADSVK,GRAAGTFDK,not detected,0 of 6,0 of 18

Nonspecific signal, from three strains lacking the peptide, appeared in 1% of pairings of all heavy chain designs, centred on 120 nM (5% of these signals below 7.0 nM); values are not corrected for it. For each scFv, signals with the empty controls are counted beside the result.
Of ten entries with the parent sequence, four were seen in most replicates (averages 2.2 nM to 240 nM), three in one and three in none, so single entries are noisy.
A sequence measured in both rounds can read differently, since the two assays cover different ranges.
The authors' rule: three or more of the six replicates give a measured affinity, fewer mean a poor binder.